Reference: patent EP4825838A1, “CATIONIC LIPID AND USE THEREOF” (dated 2026)

What was measured:
female Balb/c mice [1] = assay: mRNA delivery efficiency and tissue distribution after in vivo tail vein injection of luciferase mRNA lipid nanoparticle compositions (Test Example 1); conditions: LNP of the compound, tail vein injection 0.5 mg/kg, whole mouse IVIS
female Balb/c mice [2] = assay: mRNA delivery efficiency after intramuscular administration of luciferase mRNA lipid nanoparticles (Test Example 2); conditions: LNP of the compound, intramuscular 0.1 mg/kg, 24 h after administration
[3] = Characterization of lipid nanoparticle compositions (size, PDI, encapsulation efficiency); conditions: for Size (nm): lipid nanoparticles of the compound with DSPC, cholesterol, DMG-PEG 50:10:38.5:1.5, luciferase mRNA
interleukin 6 (IL-6) = assay: In vivo safety: IL-6 concentration in muscle tissue after intramuscular injection of lipid nanoparticle compositions, ELISA (Test Example 3); conditions: LNP of the compound, hepatocyte growth factor mRNA, intramuscular 0.05 mg/kg, muscle tissue at injection site after 6 h
[4] = Freeze-drying of lipid particle compositions: particle size, PDI, encapsulation efficiency before and after (Test Example 4)
female Balb/c mice [5] = assay: Hepatocyte growth factor protein expression in muscle after intramuscular injection of HGF mRNA lipid nanoparticle compositions, ELISA (Test Example 2); conditions: LNP of the compound, gastrocnemius muscle injection 0.05 mg/kg, muscle at injection site after 6 h

Row | Structure (SMILES) | Mean fluorescence intensity (p/s) 24 h (female Balb/c mice [1]; 24 h after administration) [p/s] | Mean fluorescence intensity (p/s) 48 h (female Balb/c mice [1]; 48 h after administration) [p/s] | Mean fluorescence intensity (p/s) (female Balb/c mice [2]) | Size (nm) ([3]; dynamic light scattering) | Encapsulation efficiency (%) ([3]; lipid nanoparticles of the compound, luciferase mRNA, Quant-iT RiboGreen RNA assay kit) | PDI ([3]; lipid nanoparticles of the compound, luciferase mRNA, dynamic light scattering) | Tissue IL-6 concentration (interleukin 6 (IL-6)) [pg/mg] | Encapsulation efficiency before freeze-drying (%) [4] [%] | PDI after freeze-drying [4] | PDI before freeze-drying [4] | Rate of change in particle size after freeze-drying (%) ([4]; after vs before freeze-drying) | Particle size before freeze-drying (nm) ([4]; lipid nanoparticles in 20 mM Tris, pH 7.5, 8% sucrose) | Particle size after freeze-drying and reconstitution (nm) ([4]; reconstitution with 0.6 mL water for injection) | Mean protein expression level (female Balb/c mice [5]) [ng/mg]
1 | CCCCCCCCCCCOC(=O)CCCCCN(CCO)CCCCCOCC(=O)OC(CCCCCCCC)CCCCCCCC | 5.39E+09 | 2.27E+08 | 2.02E+08 | 90.3 | 92 | 0.17 | 508.1 | 94.0 | 0.16 | 0.14 | 76.3 | 92.9 | 163.8 | –
2 | CCCCCCCCCCCOC(=O)CCCCCN(CCO)CCCCCCCC(=O)OC(CCCCCCCC)CCCCCCCC | – | – | – | 96.0 | – | – | – | – | – | – | – | – | – | 3.45
